Data: ChEMBL document CHEMBL1155455

Chains of the proteins cited; added tags and fusions are not shown. Lines headed by an entry give the natural chain unless they say otherwise; changes in a name come on top.
UniProt P35372, whole entry: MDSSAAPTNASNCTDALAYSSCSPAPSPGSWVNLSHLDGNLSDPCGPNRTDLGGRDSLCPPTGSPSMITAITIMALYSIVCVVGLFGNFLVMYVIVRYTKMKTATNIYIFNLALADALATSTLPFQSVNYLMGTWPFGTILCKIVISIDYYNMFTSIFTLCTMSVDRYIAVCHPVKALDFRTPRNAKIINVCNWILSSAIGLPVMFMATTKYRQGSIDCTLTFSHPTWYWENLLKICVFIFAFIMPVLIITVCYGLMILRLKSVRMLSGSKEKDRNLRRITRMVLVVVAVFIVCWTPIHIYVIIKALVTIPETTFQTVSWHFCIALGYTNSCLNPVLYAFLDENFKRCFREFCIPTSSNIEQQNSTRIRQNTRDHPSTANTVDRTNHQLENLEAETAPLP
UniProt P41143, whole entry: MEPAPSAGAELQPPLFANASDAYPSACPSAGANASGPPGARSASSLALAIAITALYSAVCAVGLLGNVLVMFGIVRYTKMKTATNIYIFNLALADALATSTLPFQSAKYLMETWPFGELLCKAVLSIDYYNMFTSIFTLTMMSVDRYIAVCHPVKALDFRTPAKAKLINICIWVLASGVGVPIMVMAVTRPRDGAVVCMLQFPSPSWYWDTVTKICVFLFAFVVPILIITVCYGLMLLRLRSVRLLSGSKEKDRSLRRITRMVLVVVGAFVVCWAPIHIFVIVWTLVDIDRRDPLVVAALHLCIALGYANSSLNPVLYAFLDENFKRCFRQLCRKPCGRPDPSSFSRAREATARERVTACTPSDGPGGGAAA
UniProt P41145: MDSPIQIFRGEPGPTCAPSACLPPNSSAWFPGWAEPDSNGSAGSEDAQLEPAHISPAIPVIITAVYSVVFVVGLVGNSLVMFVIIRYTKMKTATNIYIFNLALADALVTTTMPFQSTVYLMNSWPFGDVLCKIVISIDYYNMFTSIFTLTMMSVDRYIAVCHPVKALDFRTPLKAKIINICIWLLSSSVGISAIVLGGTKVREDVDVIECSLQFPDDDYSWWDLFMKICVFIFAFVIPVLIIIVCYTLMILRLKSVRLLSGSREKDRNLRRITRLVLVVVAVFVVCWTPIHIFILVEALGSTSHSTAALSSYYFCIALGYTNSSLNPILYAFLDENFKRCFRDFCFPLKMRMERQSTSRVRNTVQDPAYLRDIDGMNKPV

Experiments:
Settings in all cases: CHO
[1] = biological target: Mu-type opioid receptor (Homo sapiens) (UniProt P35372)
[2] = biological target: Delta-type opioid receptor (Homo sapiens) (UniProt P41143)
[3] = biological target: Kappa-type opioid receptor (Homo sapiens) (UniProt P41145)

Compound | Ke [1] [nM] | Ke [2] [nM] | Ke [3] [nM]
CC(C)[C@@H](CN1CC[C@@](C)(c2cccc(O)c2)[C@@H](C)C1)NC(=O)[C@@H]1CCc2cc(O)ccc2C1 | 6.67 | 44.8 | 0.18
CC(C)[C@@H](CN1CC[C@@](C)(c2cccc(O)c2)[C@@H](C)C1)NC(=O)[C@H]1Cc2ccc(O)cc2C[S+]1[O-] (single isomer, unassigned; diastereomer a) | 7.9 | 208 | 2.7
CC(C)[C@@H](CN1CC[C@@](C)(c2cccc(O)c2)[C@@H](C)C1)NC(=O)[C@H]1Cc2ccc(O)cc2CO1 | 7.4 | 197 | 0.71
CC(C)[C@@H](CN1CC[C@@](C)(c2cccc(O)c2)[C@@H](C)C1)NC(=O)[C@H]1CCc2cc(O)ccc2C1 | 11.2 | 205 | 1.37
CC(C)[C@@H](CN1CC[C@@](C)(c2cccc(O)c2)[C@@H](C)C1)NC(=O)[C@@H]1Cc2ccc(O)cc2CO1 | 5.2 | 134 | 5.7
CC(C)[C@@H](CN1CC[C@@](C)(c2cccc(O)c2)[C@@H](C)C1)NC(=O)[C@H]1Cc2ccc(O)cc2C[S+]1[O-] (single isomer, unassigned; diastereomer b) | 1.8 | 61 | 0.55
CC(C)[C@@H](CN1CC[C@@](C)(c2cccc(O)c2)[C@@H](C)C1)NC(=O)[C@H]1Cc2ccc(O)cc2CS1 | 5.57 | 395 | 0.99
CC(C)[C@@H](CN1CC[C@@](C)(c2cccc(O)c2)[C@@H](C)C1)NC(=O)[C@@H]1Cc2ccc(O)cc2CS1 | 13.4 | 182 | 1.58
